Source: PubChem BioAssay (National Center for Advancing Translational Sciences (NCATS))
In the library only some 13% were active in any assay of this set; here they are far more common.
Lamin A splicing: modulators of lamin A splicing | HeLa LMNA splicing GFP/RFP minigene ratio, 48 h | Potency, µM (highest dose often 46.1 µM), most hits filed as inhibitors | 0.01% of 200,000 active | AID 1487; active = well fitted inhibition curve with a large enough effect in the signal ratio, with a control signal flat, not every such curve was filed as active; inconclusive = small, poorly fitted or top-dose-only effect, or effect the other way, or a change in a side signal; the % refers to the signal ratio
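S3 HeLa cells stably expressing lamin A-EGFP splicing minigene plus DsRed2, 600 cells/well, 48 h compound exposure at 37C. Laser-scanning cytometry; analysed as GFP (500-530 nm)/RFP (575-640 nm) total intensity ratio; 0.5% DMSO vehicle.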
Sfp PPTase inh: Sfp phosphopantetheinyl transferase inhibition. Q9F4F7. Potency, µM, most hits filed as inhibitors. AID 1490. Biochemical Sfp PPTase activity, qHTS. 3.5% of 310,000 active;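 also: the enzyme is Sfp with the accession as filed and its product quenches rhodamine fluorescence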
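Reaction rates are the 30-min fluorescence difference (ex 525, em 598 nm) in wells containing 15 nM Sfp, 5 uM rhodamine-CoA and 12.5 uM BHQ-2-YbbR at pH 7.6 with 10 mM MgCl2.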
ALDH1A1 inh: blocks purified human ALDH1A1 activity | P00352 | Purified ALDH1A1, NADH fluorescence, propionaldehyde substrate | Potency, µM (doses to about 75.3 µM), usual class: inhibitors | 7.3% of 220,000 active; active = well fitted inhibition curve with a large enough effect, not every such curve was filed as active; inconclusive = small, poorly fitted or top-dose-only effect, or another doubt; inactive = no such curve, though single readings can be large or run the other way
G9a block: G9a (human) methyltransferase inhibition; AID 504332; G9a H3K9 monomethylation, AlphaScreen, 2 h; 8.8% of 350,000 active; Potency, µM (highest dose often 102 µM), actives largely listed as inhibitors; also: nearly all actives have a fitted effect of over 75% in size
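Methyltransferase reactions run at room temperature for 2 h (20 nM enzyme, 500 nM biotin-H3K9 peptide, 20 uM SAM) after a 15 min compound preincubation; product detected by AlphaScreen beads and anti-H3K9me1 antibody.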
JMJD2E inh: JMJD2E (human) inhibition. Potency, µM (series often up to 57.1 µM), hits mostly inhibitors. 1.6% of 230,000 active. AID 2147. JMJD2E catalytic domain, FDH-coupled NADH fluorescence (FDH is formaldehyde dehydrogenase). B2RXH2; active = well fitted inhibition curve with a large enough effect, not every such curve was filed as active; inconclusive = small, poorly fitted or top-dose-only effect, or another doubt; inactive = no such curve, though single readings can be large or run the other way; also: nearly all actives have a fitted effect of over 50% in size
miR-21 FLuc: miR-21 reporter, rising signal | HeLa miR-21 FLuc reporter, luciferase, 48 h | Potency, µM (top dose mostly 38.3 µM) | 340,000 tested, under 10 active | AID 2288; active = well fitted rising curve with a large enough effect; inconclusive = small, poorly fitted or top-dose-only effect; inactive = no such curve, though single readings can be large or run the other way;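 note: miR-21 action dims this reporter so a rising signal means less miR-21 action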
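Luminescence from a firefly luciferase reporter carrying a miR-21 binding site downstream, stably expressed under a CMV promoter in HeLa cells that make miR-21 endogenously, reports miRNA modulation after 48 h compound exposure up to approximately 40uM final.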
Numbers stand for hits; n = inactive; u = inconclusive; x = no result given; [ ] = dose if it differs, or a comment. Unless noted, calls follow the shape of the dose curve; as a rule, active = well fitted curve in the direction sought with a large enough effect; inconclusive = small, poorly fitted or top-dose-only effect, or another doubt; inactive = no such curve, though single readings can be large; an effect the other way counts as inactive or inconclusive.

SMILES	Lamin A splicing	Sfp PPTase inh	ALDH1A1 inh	G9a block	JMJD2E inh	miR-21 FLuc
COc1ccccc1N1CCN(C2CCN(C(=O)COc3ccccc3)CC2)CC1	n	n	n	10µM	u	n
CC1CCC(N2CCN(C(=O)c3ccccc3F)CC2)CC1 (stereo not drawn)	x	n	x	16µM	x	n
O=C(c1ccccc1Oc1ccccc1)N1CCN(c2ccccc2)CC1	u	n	22µM	40µM	n	n
O=C(c1ccccc1F)N1CCN(C(=O)C2CC2)CC1	x	n	x	n	x	n
COc1ccc(C(=O)N2CCC(N3CCN(c4ccccc4)CC3)CC2)cc1	n	u	n	2.5µM	u	n
COc1ccccc1N1CCN(C(=O)COc2cccc3ccccc23)CC1	x	n	x	n	x	n
O=C(CSC1=Nc2ccccc2C2=NC(CCC(=O)NC3CCCCC3)C(=O)N12)Nc1cccc(C(F)(F)F)c1 (stereo not drawn)	x	x	x	n	x	n
O=C(COc1ccccc1)NCC(=O)N/N=C/c1ccc(Cl)cc1	x	n	x	n	x	n
COc1ccc(C(=O)N2CCN(c3nnnn3-c3ccccc3)CC2)cc1OC	n	n	16µM	n	n	n
CCOC(=O)N1CCN(c2nnnn2-c2ccccc2)CC1	n	n	u	n[12.7 µM]	n	n
O=C(c1ccc(CSCc2ccccc2F)o1)N1CCN(c2ccc(N3CCOCC3)nn2)CC1	n	n	u	40µM	u	n
CCN(CC)C(=O)CSc1ncnc2c1nnn2-c1ccc(OC)cc1	n	n	4µM	n	n	n
CCN(CC)C(=O)CSc1ncnc2c1nnn2-c1ccc(F)cc1	n	n	u	n	n	n
COc1ccc(-n2nnc3c(SCc4ccccc4)ncnc32)cc1	n	n	13µM	n	n	n
COC(=O)c1ccc(CSc2nnc3ccc4ccccc4n23)cc1	n	x	x	n	x	n
Cc1sc2ncn(CC(=O)N(C)C3CCCCC3)c(=O)c2c1C	x	x	x	40µM	x	x
COC(=O)c1sc2ncn(CC(=O)N(C)C3CCCCC3)c(=O)c2c1C	x	n	x	n	x	n
O=C(Cc1csc(-c2ccccc2)n1)NCc1ccco1	n	n	n	u	n	n
c1ccc(C[n+]2c(-c3ccccc3)csc2Nc2ccccc2)cc1	u	n	u	11µM	n	n
CCCCCC[n+]1c(-c2ccc(Cl)cc2Cl)csc1Nc1ccccc1	n	n	n	u	n	n
c1ccc(Nc2scc(-c3ccccc3)[n+]2Cc2ccco2)cc1	u	20µM	10µM	16µM	n	n
CN(C)c1ccc(/C=C/c2cccc[n+]2[O-])cc1	x	n	x	50µM	n	n
CC(C)CC[n+]1ccccc1/C=C/c1ccc(N(C)C)cc1	x	n	x	32µM	x	u
CC1(C)Cc2c(c(N3CCCC3)[nH]c(=S)c2C#N)CO1	n	40µM	u	u	n	n
COc1cccc(Nc2nc(-c3sc(NC(=O)CC(C)C)nc3C)cs2)c1	u	n	u	u	n	n
SMILES	Lamin A splicing	Sfp PPTase inh	ALDH1A1 inh	G9a block	JMJD2E inh	miR-21 FLuc
Cc1nc(C)c(-c2csc(Nc3ccc(N)cc3)n2)s1	x	n	x	40µM	x	n
CCC(=O)Nc1nc(C)c(-c2csc(Nc3ccc(C(=O)O)cc3)n2)s1	x	u	x	50µM	x	n
C=CCCC(=O)Nc1nc(C)c(-c2csc(Nc3cccc(OC)c3)n2)s1	n	n	n	u	n	n
COc1ccc(Nc2nc(-c3sc(C)nc3C)cs2)cc1	x	n	x	x	x	n
COc1cccc(Nc2nc(-c3sc(NC(=O)c4ccccc4)nc3C)cs2)c1	u	n	u	50µM	u	n
CCC(=O)Nc1nc(C)c(-c2csc(Nc3cccc(C(=O)O)c3)n2)s1	x	20µM	u	45µM	n	n
Cc1nc(NC(=O)c2ccccc2)sc1-c1csc(Nc2ccc(C(=O)O)cc2)n1	x	n	x	x	n	n
CC(=O)c1ccc(NC(=O)c2nn(C)c3c2COc2ccccc2-3)cc1	x	x	x	u	x	n
Cc1ccc(N2CC(C(=O)OCC(=O)Nc3ccc(Cl)cc3)CC2=O)cc1 (stereo not drawn)	x	x	x	n	x	x
CC(C)Oc1ccc(CNC(=O)c2ccc3c(c2)nc2n3CCCCC2)cc1	n	x	x	n	x	n
CC(=O)Nc1nc(C)c(-c2csc(Nc3cccc(C(C)=O)c3)n2)s1	x	n	x	40µM	x	n
CC(=O)Nc1nc(C)c(-c2csc(Nc3cccc([N+](=O)[O-])c3)n2)s1	u	n	n	n	n	n
